Sequences of proteins named here, by UniProt entry; tags and fusion partners are left off. A change or cut given only in a name is not applied to a line headed by its entry. Residues count along the entry.
UniProt P14416, whole entry: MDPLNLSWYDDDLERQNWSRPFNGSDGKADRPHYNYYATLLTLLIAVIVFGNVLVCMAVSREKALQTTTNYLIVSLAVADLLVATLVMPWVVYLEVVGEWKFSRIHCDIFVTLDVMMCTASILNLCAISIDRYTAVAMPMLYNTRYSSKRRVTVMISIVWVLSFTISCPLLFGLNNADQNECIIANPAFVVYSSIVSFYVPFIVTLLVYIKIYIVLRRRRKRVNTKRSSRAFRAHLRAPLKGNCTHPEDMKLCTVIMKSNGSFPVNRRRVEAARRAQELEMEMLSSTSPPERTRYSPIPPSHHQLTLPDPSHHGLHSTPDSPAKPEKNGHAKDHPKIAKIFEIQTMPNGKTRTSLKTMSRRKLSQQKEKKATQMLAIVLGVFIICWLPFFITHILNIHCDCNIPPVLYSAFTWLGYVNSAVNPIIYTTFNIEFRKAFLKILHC
UniProt P14416, 1-414 isoform 2: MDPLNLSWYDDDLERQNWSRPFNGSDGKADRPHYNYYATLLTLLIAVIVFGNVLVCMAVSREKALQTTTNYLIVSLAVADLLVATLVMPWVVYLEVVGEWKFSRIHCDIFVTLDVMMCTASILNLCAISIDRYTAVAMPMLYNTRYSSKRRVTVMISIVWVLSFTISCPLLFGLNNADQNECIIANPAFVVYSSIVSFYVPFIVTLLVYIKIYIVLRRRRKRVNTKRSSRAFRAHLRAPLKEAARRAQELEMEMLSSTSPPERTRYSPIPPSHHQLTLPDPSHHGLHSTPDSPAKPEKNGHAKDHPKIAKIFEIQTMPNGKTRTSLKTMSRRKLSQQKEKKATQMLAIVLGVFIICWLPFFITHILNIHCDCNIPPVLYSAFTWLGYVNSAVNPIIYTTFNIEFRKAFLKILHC
UniProt P35462, whole entry: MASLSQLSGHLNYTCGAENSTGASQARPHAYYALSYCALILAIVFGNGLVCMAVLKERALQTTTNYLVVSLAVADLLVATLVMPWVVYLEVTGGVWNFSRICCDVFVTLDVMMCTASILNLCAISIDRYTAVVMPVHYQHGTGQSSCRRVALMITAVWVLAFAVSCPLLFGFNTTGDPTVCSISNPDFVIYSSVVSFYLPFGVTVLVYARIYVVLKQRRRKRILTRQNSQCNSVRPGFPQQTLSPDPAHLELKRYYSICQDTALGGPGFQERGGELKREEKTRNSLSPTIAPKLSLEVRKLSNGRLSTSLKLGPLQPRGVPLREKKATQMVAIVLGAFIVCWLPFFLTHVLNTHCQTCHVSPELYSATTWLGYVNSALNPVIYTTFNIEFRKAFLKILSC

According to paper PMC5018964, “Visualization and ligand-induced modulation of dopamine receptor dimerization at the single molecule level” (Scientific Reports, 2016):

Columns and labels:
human D2S = human D2S (Homo sapiens, UniProt P14416); assay: [3H]spiperone competition/saturation binding, membranes of CHO cells expressing human D2S; conditions: read-out: Ki ± s.d. hD2S; [³H]spiperone competition, CHO cell membranes; tested form: TFA salt
SNAP-D2L receptor [1] = molecular target: SNAP-D2L receptor (Homo sapiens, UniProt P14416); assay: Single-molecule TIRF-M of SNAP-D2L receptors in CHO cells with ligands (dimerization, mobility, colocalization); conditions: tested form: TFA salt; for cell labeling by the fluorescent ligand after pretreatment with 10 μM spiperone (specificity): CHO cells stably expressing SNAP-D2L
human D3 = human D3 (Homo sapiens, UniProt P35462); assay: [3H]spiperone competition/saturation binding, membranes of CHO cells expressing human D3; conditions: read-out: Ki ± s.d. hD3; [³H]spiperone competition, CHO cell membranes; tested form: TFA salt
SNAP-D2L receptor [2] = assay: Live-cell kinetic fluorescent ligand binding (association and dissociation); conditions: tested form: TFA salt; for dissociation time constant τ: CHO SNAP-D2L cells preincubated 60 min at 10-fold Ki, then 5 × 10^−6 M spiperone; for off-rate: one-phase exponential decay, 23°C, 5 x 10^-6 M spiperone in imaging buffer
human D2L [3] = molecular target: T1, human D2L (Homo sapiens, UniProt P14416); assay: [3H]spiperone competition/saturation binding, membranes of CHO cells expressing human D2L; conditions: read-out: Ki ± s.d. hD2L; [³H]spiperone competition, CHO cell membranes; tested form: TFA salt
human D2L [4] = molecular target: T1, human D2L; assay: Single-molecule TIRF-M of wild-type D2L receptors in CHO cells labeled with fluorescent ligands; assay type: cell-based; conditions: D2L wt in CHO cells labeled with fluorescent ligand, 10-fold Ki, mean ± s.d., tested form: TFA salt

| Structure (SMILES) | Ki (human D2S) | cell labeling by the fluorescent ligand after pretreatment with 10 μM spiperone (specificity) (SNAP-D2L receptor [1]) | Ki (human D3) | dissociation time constant τ (SNAP-D2L receptor [2]) | off-rate (SNAP-D2L receptor [2]) | Ki (human D2L [3]) | Average Dlat 24°C (average lateral diffusion coefficient) (human D2L [4]) | Density (spots µm-2) (human D2L [4]) | labeling of the receptors by the fluorescent ligand (SNAP-D2L receptor [1]; 10-fold Ki, SNAP-D2L and wild type D2L, spot densities compared to Alexa546-BG labeling) | Average Dlat 24°C (average lateral diffusion coefficient) (SNAP-D2L receptor [1]; SNAP-D2L in CHO cells, 10 x Ki value labeling concentration, 24°C, mean ± s.d.) | Density (spots µm-2) (SNAP-D2L receptor [1]; SNAP-D2L in CHO cells, 10 x Ki value labeling concentration, mean ± s.d.) | on-rate (SNAP-D2L receptor [2]; 300 nM ligand, 37°C, one-phase exponential association fit, mean ± s.e.m.) |
| --- | --- | --- | --- | --- | --- | --- | --- | --- | --- | --- | --- | --- |
| COc1ccccc1N1CCN(Cc2ccc(OCCCc3cn(CCCCCCCCn4cc(CCCOc5ccc(CN6CCN(c7ccccc7OC)CC6)cc5OCCCCNC(=O)Cc5ccc6c(c5)C(C)(C)C5=C7C=C8C9=[N+](CCC8OC7CCN56)c5ccc(S(=O)(=O)[O-])cc5C9(C)C)nn4)nn3)c(OCCCCNC(=O)Cc3ccc4c(c3)C(C)(C)C3=C5C=C6C7=[N+](CCC6OC5CCN34)c3ccc(S(=O)(=O)[O-])cc3C7(C)C)c2)CC1 (centres unmarked) | 110 nM | completely blocked | 56 nM | 55.2 min | 0.018 ± 0.0018 min⁻¹ | 150 nM | 0.074 ± 0.016 µm² s-1 | 0.66 ± 0.04 spots µm-2 |  |  |  |  |
| CCCCn1cc(CCCOc2ccc(CN3CCN(c4ccccc4OC)CC3)cc2OCCCCNC(=O)Cc2ccc3c(c2)C(C)(C)C2=C4C=C5C6=[N+](CCC5OC4CCN23)c2ccc(S(=O)(=O)[O-])cc2C6(C)C)nn1 (centres unmarked) | 27 nM | completely blocked | 44 nM | 27.6 min | 0.036 ± 0.0013 min⁻¹ | 30 nM | 0.109 ± 0.006 µm² s-1 | 0.64 ± 0.04 spots µm-2 | > 90% | 0.080 ± 0.004 µm² s-1 | 0.66 ± 0.04 spots µm-2 | 0.204 ± 0.026 min⁻¹ |
